Source: PubChem BioAssay AID1308 (The Scripps Research Institute Molecular Screening Center, 2008)
The list shows a part of the results, in another mix than the full data. Active and inactive are the calls of the source.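 How the source made its calls: active means inhibition above the mean of solvent-only control wells plus 3 SD, cutoff set per campaign (cut at about 13% in these data); inactive means the rest.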

assay: inhibition of TNF-alpha-driven NF-kB transcription – cell-based, HEK293T, luciferase, TNF-alpha stimulus, counter-screen for STAT3 inhibitor project, confirmation (AID 1308); conditions: HEK293T NF-kB luciferase reporter, TNF-alpha induced; at 5.7 µM; active compounds read high;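 further: 0% = TNF-alpha with DMSO and 100% = TNF-alpha with MG high control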

Structure (SMILES) | inhibition
O=c1c2cc([N+](=O)[O-])ccc2[nH]c2c([N+](=O)[O-])cc([N+](=O)[O-])cc12 | active: 15.9%
